Bioassay records (PubChem BioAssay)
GALK inh: galactokinase (human) inhibition; Potency, µM (top dose mostly 57.5 µM), most hits filed as inhibitors; P51570; 270,000 tested, 0.007% active; Purified GALK, Kinase-Glo residual ATP luminescence
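Galactose (100 uM) and ATP (35 uM) were turned over by 5 nM GALK for 1 h at RT. Kinase-Glo Plus then converted the remaining ATP into a luminescent signal.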
miR-21 FLuc: miR-21 reporter, rising signal; HeLa miR-21 FLuc reporter, luciferase, 48 h; Potency, µM (titrated, usually from 38.3 µM); AID 2288; 340,000 tested, under 10 active; active = well fitted rising curve with a large enough effect; inconclusive = small, poorly fitted or top-dose-only effect; inactive = no such curve, though single readings can be large or run the other way;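 further: miR-21 action dims this reporter so a rising signal means less miR-21 action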
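HeLa cells stably expressing CMV-driven firefly luciferase with a downstream miR-21 binding sequence, endogenously expressing miR-21, were treated with titrations (up to about 40uM final) for 48 hours at 37 degree Celsius. Luciferase luminescence was read after lysis.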
PI4K2A block: blocks human PI4K2A kinase activity; purified PI4K2A, ADP-Glo luminescence, 1 h; hits give low values; AID 1346378; 420,000 tested, 0.13% active; Q9BTU6; activity change, negative = inhibition, % at 76.9 µM; in the data active = activity change below about -50%; inconclusive = mostly about -30% to -49%
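PI4K2A activity was measured by ADP-Glo luminescence: enzyme (4 ug/mL stock) and phosphatidylinositol (1.2 mM stock) in Tris pH 7.5/MgCl2/EGTA/Triton X-100 buffer were reacted with ATP (300 microM stock) for one hour at ambient temperature.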
A549 viability: counter-screen for Nrf2 inhibitors: cytotoxicity in A549 cells. A549 ARE-Fluc cells, CellTiter-Fluor viability, 18-24 h. Potency, µM (titrated, usually from 46 µM), hits mostly inhibitors. 390,000 tested, 0.16% active. AID 504648
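A549 ARE_Fluc cells in 5% FBS OPTI-MEM were exposed to compounds in concentration-response for 18-24 h at 37 deg C. Viability was read by CellTiter-Fluor fluorescence (Ex 405/Em 525) after 30 min, before the luciferase read.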
Nrf2 activator: activators of Nrf2 (ARE) signaling. AREc32 ARE-luciferase reporter (MCF7-derived line), luminescence, 24 h. 410,000 tested, 0.31% active. AID 624171. Potency, µM (titrated, usually from 46.1 µM), actives largely listed as activators; note: nearly all actives have a fitted effect of over 65% in size
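Reporter line AREc32 (ARE-Fluc), seeded overnight in OPTI-MEM with 5% FBS; compound pin-transferred, 24 hr at 37 deg C, 5% CO2; luminescent read-out.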
Nrf2 inh: inhibitors of Nrf2 signaling; A549 ARE-Fluc reporter, luciferase luminescence, 18-24 h; Potency, µM (top dose mostly 46 µM), hits mostly inhibitors; 360,000 tested, 2.1% active; note: nearly all actives have a fitted effect of over 60% in size
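Two sequential reads on A549 ARE_Fluc cells exposed to compound for 18-24 h: a CellTiter-Fluor fluorescence read for viability, then a luciferase luminescence read for Nrf2/ARE activity.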
A number is an active result; . = inactive; ? = inconclusive; / = no result given. Sampled rows, rich in hits. Any-hit rate of the full collection: about 2.2%. Unless noted, calls come from the whole dose curve; as a rule, active = well fitted curve in the direction sought with a large enough effect; inconclusive = small, poorly fitted or top-dose-only effect, or another doubt; inactive = no such curve, though single readings can be large; an effect the other way counts as inactive or inconclusive.

SMILES	GALK inh	miR-21 FLuc	PI4K2A block	A549 viability	Nrf2 activator	Nrf2 inh
Cc1ccc(Cl)c(OCC(O)CNC(C)(C)C)c1 (stereo not drawn)	/	/	.	/	/	/
COC(=O)CCCn1cc(CN2CC=CS2(=O)=O)nn1	/	/	.	/	/	/
CN(C)CCNC(=O)c1cccc2nc3cccc(F)c3nc12	/	/	.	10µM	.	4.6µM
COc1ccc(C23CC4CC(CC(C4)C2)C3)cc1C(=O)NCCN(C)C	.	.	.	.	.	.
CN(C)CCNC(=O)c1ccccc1	.	.	.	.	.	.
CN(C)CCNC(=O)c1sc2cccc(F)c2c1Cl	.	.	.	.	.	.
COc1ccc(OC)c2nc3c(C(=O)NCCN(C)C)cccc3nc12	/	/	.	16µM	.	5.8µM
CN(C)CCNC(=O)c1cccc2ccc(-c3ccc(-c4ccccc4)cc3)nc12	/	/	.	?	4.5µM	.
Cc1nn(CCC(=O)NNC(=O)Nc2ccc(Cl)cc2)c(C)c1[N+](=O)[O-]	/	/	.	/	/	/
O=C1/C(=C/c2ccccc2)CCC1C1CCCC1 (stereo not drawn)	/	.	.	.	.	?
CN1C2CCC1/C(=C\c1ccccc1)C(=O)/C2=C\c1ccccc1	.	.	.	?	?	26µM
CCCN(CCC)C(=O)C(CCC(=O)OCCCN1CCN(CCOC(=O)Cc2c(C)n(C(=O)c3ccc(Cl)cc3)c3ccc(OC)cc23)CC1)NC(=O)c1ccccc1 (stereo not drawn)	/	/	.	/	/	/
O=C(NCCc1ccccc1)c1ccc2c(c1)OCCCO2	.	?	.	.	.	2.1µM
O=C(/C(C=Nc1cccc(C(F)(F)F)c1)=C(/O)c1ccco1)C(F)(F)F	.	.	.	.	7.9µM	.
Cc1nc([N+](=O)[O-])c(Br)n1Cc1ccccc1	.	.	.	.	10µM	?
Cc1nc([N+](=O)[O-])c(Br)n1CC(=O)c1ccc(F)cc1	.	.	.	.	.	.
Cn1c(SCC(=O)NCCN2CCCCC2)nc2cccnc21	/	/	.	/	/	/
C=CCN1C=C/C(=C\C=C(C#N)C#N)c2ccccc21	.	.	?	18µM	.	?
CCCCCCN1C=C/C(=C\C=C(C#N)C#N)c2ccccc21	.	.	.	6.5µM	.	18µM
O=C(CCCl)NCc1ccccc1	/	/	.	/	/	/
C=CCN1C(=O)[C@@H](CC(=O)N2CCOCC2)[C@]2(C(=O)OCC)CCCCC/C=C/12	/	/	.	/	/	/
O=C(c1ccncc1)N1CC[C@H]2[C@H](CCCN2Cc2cc(F)cc(F)c2)C1	/	/	.	/	/	/
CC(=O)c1c(CC(=O)O)[nH]n(-c2nc3ccccc3s2)c1=O	.	.	?	.	.	/
COC(=O)Cc1[nH]n(-c2nc3ccccc3s2)c(=O)c1C(C)=O	.	.	-53	.	.	?
O=C(C1CCC1)N1CCc2cc(S(=O)(=O)N3CCCC3)ccc21	/	/	.	/	/	/
SMILES	GALK inh	miR-21 FLuc	PI4K2A block	A549 viability	Nrf2 activator	Nrf2 inh
CC(C)(C)OC(=O)COc1cc(OCC(=O)OC(C)(C)C)c2c(=O)cc(-c3ccccc3)oc2c1	.	?	.	16µM	.	23µM
CC1(C)OC(=O)C2(Cc3cc(C(F)(F)F)ccc3N3CCCCC32)C(=O)O1 (stereo not drawn)	/	/	/	.	/	.
CN(Cc1cccs1)c1ncnc2ccc(-c3ccc4cnn(C)c4c3)cc12	/	/	/	?	/	.
Nc1c(C(=O)Nc2ccc(OC(F)(F)F)cc2)sc2nc(-c3ccncc3)ccc12	/	.	.	.	.	6.5µM
C/C(=N\NC(=O)CSCc1ccc([N+](=O)[O-])cc1)c1cccc(Br)c1	.	.	.	.	.	23µM
CCCCCCCCN1C(=O)[C@@H](CC(=O)NCc2cccs2)C[C@@]2(C(=O)OC)C1=C[C@H](C(C)C)O[C@@H]2C1CC1	/	/	.	/	/	/
CN(CC(=O)NCCc1ccc(S(N)(=O)=O)cc1)Cc1ccc(Cl)cc1Cl	.	.	.	.	.	18µM
COc1ccc(NS(=O)(=O)c2ccccc2)cc1NS(=O)(=O)c1ccccc1	/	/	/	.	/	.
CCC[C@H]1[C@@H](OC(=O)Oc2ccc([N+](=O)[O-])cc2)CC[C@@]23CCCN2C(=O)CCC[C@@H]13	/	/	.	/	/	/
Cc1ccc(CSC(Nc2ccc(F)cc2)=C(C#N)C#N)cc1	.	?	.	?	.	21µM
CCN(CC)C(=O)Cn1nc(Cc2ccncc2)c2ccccc2c1=O	/	/	.	/	/	/
N#CC(c1ccc(Cl)cc1)c1ccc2c(C(F)(F)F)cc(C(F)(F)F)nc2n1 (stereo not drawn)	.	?	.	5.8µM	.	1.5µM
FC(F)(F)c1cc(C(F)(F)F)c2ccc(N3CCN(c4ccc(Cl)cc4)CC3)nc2n1	.	.	.	.	.	.
COC(=O)[C@]12C[C@H](CC(=O)NCc3cccc4ccccc34)C(=O)N(Cc3ccco3)C1=C[C@H](C1CCCC1)O[C@@H]2C	/	/	.	/	/	/
Cc1cc(N2CCN(S(=O)(=O)c3ccccc3)CC2)c2ccccc2n1	.	.	.	.	.	21µM
O=S(=O)(c1ccccc1)N1CCN(c2ccnc3cc(Cl)ccc23)CC1	.	.	.	.	.	23µM
O=S(=O)(c1cccs1)N1CCN(c2ccnc3cc(Cl)ccc23)CC1	.	.	.	?	.	?
COc1ccc(CCNC(=O)c2cc3ccccn3n2)cc1	/	/	.	/	/	/
CC(=O)Oc1cccc(/C=C2\Sc3ccccc3C2=O)c1	.	.	.	.	14µM	.
CCCCOc1ccc(/C=C2/Sc3ccccc3C2=O)cc1	.	.	.	.	.	?
O=C(C=P(c1ccccc1)(c1ccccc1)c1ccccc1)c1ccccc1-c1ccccc1C(=O)C=P(c1ccccc1)(c1ccccc1)c1ccccc1	/	/	.	4.6µM	.	2.1µM
O=C(NNC(=O)c1ccccc1-c1ccccc1C(=O)O)c1ccccc1	.	.	.	.	.	.
CCOC(=O)Cc1csc(NC(=O)c2csc3c2CCCC3)n1	.	.	.	.	.	18µM
CCOC(=O)Cc1csc(NC(=O)/C=C\c2ccccc2Cl)n1	.	.	.	.	?	26µM
O=C(Nc1sc2c(c1-c1nc3ccccc3s1)CCNC2)C(F)(F)F	/	/	.	/	/	/
COc1ccc(CC(=O)Nc2ccc3nc(Nc4cccc(Cl)c4)cc(C)c3c2)cc1	/	.	.	?	.	26µM
Cc1cccc(OCC(=O)Nc2ccc3nc(Nc4cccc(C(F)(F)F)c4)cc(C)c3c2)c1	/	.	.	.	.	.
Cc1cc(Nc2cccc(C(F)(F)F)c2)nc2ccc(NC(=O)Cc3ccc(Cl)cc3)cc12	/	?	.	?	.	16µM
CN(C)c1ccc(C(=O)NC2CCCCN(Cc3ccc(Cl)cc3)C2=O)cc1 (stereo not drawn)	/	/	.	/	/	/
CCNc1nc(NC(C)C)nc(N(C#N)CCOc2ccc(Cl)cc2Cl)n1	.	.	.	/	.	9.2µM
